In PubChem BioAssay AID588814 (The Scripps Research Institute Molecular Screening Center, 2011):
The entries are a selection whose mix differs from that of the whole data set. The source made the active and inactive calls.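 How the source made its calls: active means activation above the run's mean compound activation plus 3 SD (cut at about 16% in these data); inactive means the rest.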

Amino acid sequences for entries named in this document (tags omitted). A change or cut given only in a name is not applied to a line headed by its entry.
UniProt P11229: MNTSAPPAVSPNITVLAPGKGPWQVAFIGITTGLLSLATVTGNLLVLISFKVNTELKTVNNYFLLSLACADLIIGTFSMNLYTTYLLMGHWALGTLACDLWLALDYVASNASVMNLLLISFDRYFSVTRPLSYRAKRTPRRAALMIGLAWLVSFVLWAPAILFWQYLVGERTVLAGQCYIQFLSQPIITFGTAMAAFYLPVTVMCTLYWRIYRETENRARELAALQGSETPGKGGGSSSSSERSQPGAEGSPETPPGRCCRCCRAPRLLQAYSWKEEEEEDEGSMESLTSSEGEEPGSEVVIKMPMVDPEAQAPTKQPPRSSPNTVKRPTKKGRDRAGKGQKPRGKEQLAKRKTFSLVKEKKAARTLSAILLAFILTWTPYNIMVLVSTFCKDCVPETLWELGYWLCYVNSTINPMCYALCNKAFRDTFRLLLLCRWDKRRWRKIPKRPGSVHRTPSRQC

Target: Muscarinic acetylcholine receptor M1 (Homo sapiens) (UniProt P11229)
Assay: CHRM1 activation via calcium signal – Fluo-8 calcium fluorescence, CHO-K1 cells, HTS, primary screen (AID 588814);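 further: peak over basal fluorescence ratio within a 140 s kinetic read after compound addition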
Settings: CHO-K1 hM1, Fluo-8 calcium fluorescence, agonist mode; at 3 µM; active compounds read high; 0% DMSO, 100% acetylcholine EC100

| SMILES | activation |
| --- | --- |
| CCc1nc2c(n1)c1c(non1O)c1c2no[n+]1[O-] | inactive: 3.27% |
| Cc1ccc(NP(=O)(Oc2ccccc2)Oc2ccccc2)nc1 | inactive: -4.56% |
| COc1ccc(C2=NCC(CBr)S2)cc1 (centres undefined) | inactive: -7.52% |
| COC(=O)C1(C)COP(=O)(Nc2ccccc2)OC1 (centres undefined) | inactive: -1.47% |
| O=[N+]([O-])c1cccc(NC2=NCC(CBr)S2)c1 (centres undefined) | inactive: -2.48% |
| O=C(O)CNc1ccc([As](=O)(O)O)cc1 | inactive: -2.6% |
| C/C=C1/C[C@@H](C)[C@](O)(CO)C(=O)OCC2=CCN3CC[C@@H](OC1=O)[C@@H]23 | inactive: -6.27% |
| CC(C)(C)C(=O)NC(Sc1ccncn1)C(Cl)(Cl)Cl (centres undefined) | inactive: -1.86% |
| O=[N+]([O-])c1ncn(CCn2ncnc2[N+](=O)[O-])n1 | inactive: -6.14% |
| O=C(Nc1cc([As](=O)(O)O)ccc1O)c1ccccc1 | inactive: -1.29% |
| O=P1(N(CCCl)CCCl)OCCCS1 (centres undefined) | inactive: 2.87% |
| C(Cc1nn[nH]n1)Cc1nn[nH]n1 | inactive: -4.73% |
| Nc1ccc([As](=O)(O)c2ccc([N+](=O)[O-])cc2)cc1 | inactive: -1.58% |
| O=C(OC1CN2CCC1CC2)c1cccc(Cl)c1 (centres undefined) | inactive: -4.97% |
| O=[N+]([O-])c1ncn(CCn2cnc([N+](=O)[O-])n2)n1 | inactive: 0.06% |
| CC(=O)NC(SC(=S)N(C)C)C(Cl)(Cl)Cl (centres undefined) | inactive: -3.48% |
| O=[N+]([O-])c1ccc(O)c(/C=N/Nc2ccc([N+](=O)[O-])cc2[N+](=O)[O-])c1 | inactive: -4.09% |
| COc1ccc(CC2NCC(O)C2OC(C)=O)cc1 (centres undefined) | inactive: -1.75% |
| O=[As](O)(c1ccccc1)c1ccc(O)cc1 | inactive: -1.99% |
| C[C@H]1OP(=O)(Oc2ccccc2)[C@H](O)[C@H](O)[C@H]1N=[N+]=[N-] (some centres undefined) | inactive: 0.3% |
| O=P(Nc1nc2ccccc2s1)(c1ccccc1)c1ccccc1 | inactive: -3.72% |
| COc1ccc(N)c([N+](=O)[O-])c1[N+](=O)[O-] | inactive: -3.14% |
| Nc1ccc(CCCCOc2ccccc2)cc1 | inactive: 1.52% |
| O=P(Nc1ccccn1)(c1ccc(Br)cc1)c1ccc(Br)cc1 | inactive: -4.37% |
| COc1ccc(C[C@H](C)NC[C@@H](O)c2ccc(O)c(NC=O)c2)cc1 | inactive: -6.39% |
| c1nnnn1CCn1cnnn1 | inactive: 0.51% |
| O=P(Nc1nccs1)(c1ccccc1)c1ccccc1 | inactive: -3.82% |
| CC(C)C(=O)NC(Sc1ccccc1)C(Cl)(Cl)Cl (centres undefined) | inactive: -10.6% |
| CC(=O)Nc1ccc(Oc2c([N+](=O)[O-])cc([N+](=O)[O-])cc2[N+](=O)[O-])cc1 | inactive: -1.39% |
